The values that follow are results of earlier work, collected in paper PMC4120060 (Psychoneuroendocrinology, 2014).

The conditions of the data set: humans, intranasal; ref Born et al., 2002; cited from earlier work.

For insulin, the “CSF concentration of the peptide after nasal delivery” value is reported as “increased concentrations in cerebrospinal fluid (CSF) over baseline levels”.
